SMILES strings stand for the structures.

Sequences of proteins named here, by UniProt entry; tags and fusion partners are left off.
UniProt P35228, whole entry: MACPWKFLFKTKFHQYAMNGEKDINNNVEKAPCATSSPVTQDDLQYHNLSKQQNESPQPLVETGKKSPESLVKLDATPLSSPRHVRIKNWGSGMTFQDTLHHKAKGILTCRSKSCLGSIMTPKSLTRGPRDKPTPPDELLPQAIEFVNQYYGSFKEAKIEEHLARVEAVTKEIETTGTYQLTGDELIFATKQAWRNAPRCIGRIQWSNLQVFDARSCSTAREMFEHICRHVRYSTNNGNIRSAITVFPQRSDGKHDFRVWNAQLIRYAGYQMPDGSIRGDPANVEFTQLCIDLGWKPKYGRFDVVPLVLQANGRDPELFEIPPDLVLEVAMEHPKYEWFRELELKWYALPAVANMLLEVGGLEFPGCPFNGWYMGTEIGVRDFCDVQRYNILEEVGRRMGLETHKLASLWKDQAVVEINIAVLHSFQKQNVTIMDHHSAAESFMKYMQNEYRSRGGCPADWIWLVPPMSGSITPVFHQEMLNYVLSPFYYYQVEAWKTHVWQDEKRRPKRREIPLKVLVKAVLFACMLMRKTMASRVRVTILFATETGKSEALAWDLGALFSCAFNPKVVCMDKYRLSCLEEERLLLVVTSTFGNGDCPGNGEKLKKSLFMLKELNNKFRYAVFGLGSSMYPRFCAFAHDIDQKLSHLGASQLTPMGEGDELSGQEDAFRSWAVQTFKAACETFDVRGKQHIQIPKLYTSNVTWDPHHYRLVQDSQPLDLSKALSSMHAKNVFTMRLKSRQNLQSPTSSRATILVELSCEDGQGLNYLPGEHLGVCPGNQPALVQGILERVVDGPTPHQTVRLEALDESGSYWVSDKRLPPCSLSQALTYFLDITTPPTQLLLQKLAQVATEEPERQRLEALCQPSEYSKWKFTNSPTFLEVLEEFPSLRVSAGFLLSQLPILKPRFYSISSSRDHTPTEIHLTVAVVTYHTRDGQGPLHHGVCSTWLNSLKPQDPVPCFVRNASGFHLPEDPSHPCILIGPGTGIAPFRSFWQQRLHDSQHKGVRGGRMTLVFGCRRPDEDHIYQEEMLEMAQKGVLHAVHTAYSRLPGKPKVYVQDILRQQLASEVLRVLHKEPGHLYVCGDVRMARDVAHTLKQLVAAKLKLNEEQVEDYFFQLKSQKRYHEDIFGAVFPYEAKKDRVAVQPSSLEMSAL

In the assay the target is Nitric oxide synthase, inducible (Homo sapiens, UniProt P35228). The assay is described as follows: Inhibition Assay: The NOSs isoform assays involved subjecting 3-8 to an oxyhemoglobin NO capture assay using a Biotek Gen5™ microplate reader.

As usually defined, the Ki is a measure of affinity in units of concentration, obtained from inhibition or displacement. A higher Ki goes with a looser hold on the target. The molecule `Cc1cc(N)nc(CCc2cncc(CCc3cc(C)cc(N)n3)c2)c1` registered an inhibition constant (Ki) of 1450 nM.
